{"source": "patent US7186703B2", "about": "“Derivatives of branched-chain lipophilic molecules and uses thereof” (D-Pharm Ltd., priority 2000, dated 2007)", "type": "in vivo", "conditions": "rats; sodium salt", "description": "DP-BFA molecules were evaluated for safety and toxicity. Increasing doses of the tested compounds were administered intra-arterially (i.a.) into rats following the protocol described above in Example 17. Animal viability was monitored for 24 hours to evaluate lethal concentrations (LC). LC is defined as the minimal concentration that caused death.\nSafety index is defined as the ratio between the lethal dose (LC) and the minimal effective concentration (MEC), wherein MEC corresponds to a calculated concentration of the tested compound that elicits accumulation of three times the amount of Evans blue accumulated in control animals treated with vehicle only, i.e. total accumulation of 3 μg EB. The higher the LC/MEC ratio is, the higher the safety index.", "data": [{"substance": "2-(4′-Hexadecanoyloxy)ethoxyethyl phosphate [3,12-DEG-PO4]", "values": [{"measurement": "Safety LC/MEC", "result": 10}]}, {"substance": "4-Hexadecanoyloxyethyl phosphate [3,12-MEG-PO4]", "values": [{"measurement": "Safety LC/MEC", "result": 7.5}]}]}
